The chains behind the UniProt entries cited, without tags or fusion partners.
UniProt P20309, whole entry, looked up: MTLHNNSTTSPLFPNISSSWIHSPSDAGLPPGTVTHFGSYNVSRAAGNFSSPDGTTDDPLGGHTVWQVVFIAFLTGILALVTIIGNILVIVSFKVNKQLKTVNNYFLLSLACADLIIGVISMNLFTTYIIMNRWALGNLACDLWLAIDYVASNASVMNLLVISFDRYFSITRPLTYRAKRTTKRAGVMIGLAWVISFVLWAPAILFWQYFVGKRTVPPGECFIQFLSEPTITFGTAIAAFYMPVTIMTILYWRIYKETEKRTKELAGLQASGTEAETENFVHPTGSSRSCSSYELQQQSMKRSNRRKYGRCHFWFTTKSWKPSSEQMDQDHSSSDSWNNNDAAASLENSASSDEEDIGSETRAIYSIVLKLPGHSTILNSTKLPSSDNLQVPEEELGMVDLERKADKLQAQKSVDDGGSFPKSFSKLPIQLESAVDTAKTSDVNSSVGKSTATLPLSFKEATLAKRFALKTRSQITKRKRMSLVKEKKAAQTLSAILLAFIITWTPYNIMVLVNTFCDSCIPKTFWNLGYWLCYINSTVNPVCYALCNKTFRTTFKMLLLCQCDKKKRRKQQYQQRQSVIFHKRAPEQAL
UniProt P07550, whole entry, looked up: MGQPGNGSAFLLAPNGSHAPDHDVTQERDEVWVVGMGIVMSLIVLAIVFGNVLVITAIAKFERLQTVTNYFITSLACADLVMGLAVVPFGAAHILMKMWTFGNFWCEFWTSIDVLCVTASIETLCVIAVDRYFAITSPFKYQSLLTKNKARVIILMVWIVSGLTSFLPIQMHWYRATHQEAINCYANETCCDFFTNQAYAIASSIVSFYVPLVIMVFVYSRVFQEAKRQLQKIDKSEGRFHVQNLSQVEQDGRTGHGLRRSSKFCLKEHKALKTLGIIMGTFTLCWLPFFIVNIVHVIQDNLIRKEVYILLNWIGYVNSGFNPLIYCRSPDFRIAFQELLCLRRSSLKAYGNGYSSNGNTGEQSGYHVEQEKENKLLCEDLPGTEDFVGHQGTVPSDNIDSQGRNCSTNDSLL

In US9579314B2 (priority 2015, dated 2017):

Tests used:
Human M3 receptor = Human M3 receptor (Homo sapiens, UniProt P20309); test: M3 Receptor Radioligand Binding Assay; details: read-out: M3 binding affinity, Human M3 receptor membranes, classified in ranges
Human β2 adrenoceptor = Human β2 adrenoceptor (Homo sapiens, UniProt P07550); test: β2 Adrenoceptor Radioligand Binding Assay; details: read-out: B2 binding affinity, Human β2 adrenoceptor membranes, classified in ranges

In the case of `COc1ccc(C(O)(C(=O)O[C@H]2CN3CCC2CC3)c2cccc(OCCCCCNC[C@H](O)c3ccc(O)c4[nH]c(=O)ccc34)c2)cc1` (stereo partly shown), the IC50 (Human M3 receptor) is reported as over 3 nM and the IC50 (Human β2 adrenoceptor) is reported as over 3 nM.
For `CN(C)CCOC(=O)[C@@](O)(c1ccccc1)c1cccc(OCCCCCNC[C@H](O)c2ccc(O)c3[nH]c(=O)ccc23)c1` [Compound 18, (R)-2-(dimethylamino)ethyl 2-hydroxy-2-(3-((5-(((R)-2-hydroxy-2-(8-hydroxy-2-oxo-1,2-dihydroquinolin-5-yl)ethyl)amino)pentyl)oxy)phenyl)-2-phenylacetate], the IC50 (Human M3 receptor) was over 3 nM.
With `CN1CC[C@@H](OC(=O)[C@@](O)(c2ccccc2)c2cccc(OCCCCCNC[C@H](O)c3ccc(O)c4[nH]c(=O)ccc34)c2)C1` [Compound 20, (R)-(R)-1-methylpyrrolidin-3-yl 2-hydroxy-2-(3-((5-(((R)-2-hydroxy-2-(8-hydroxy-2-oxo-1,2-dihydroquinolin-5-yl)ethyl)amino)pentyl)oxy)phenyl)-2-phenylacetate] the IC50 (Human M3 receptor) was over 3 nM.
Molecule `O=C(NCCCOc1cccc([C@](O)(C(=O)OC2CCN(Cc3ccccc3)CC2)c2ccccc2)c1)c1ccc(CNC[C@H](O)c2ccc(O)c3[nH]c(=O)ccc23)cc1` [Compound 158, 1-Benzylpiperidin-4-yl (S)-2-hydroxy-2-(3-(3-(4-((((R)-2-hydroxy-2-(8-hydroxy-2-oxo-1,2-dihydroquinolin-5-yl)ethyl)amino)methyl)benzamido)propoxy)phenyl)-2-phenylacetate] has an IC50 (Human M3 receptor) of 0.3 to 3 nM.
`CN1CC[C@@H](OC(=O)[C@](O)(c2ccccc2)c2cccc(OCCCCCNC[C@H](O)c3ccc(O)c4[nH]c(=O)ccc34)c2)C1` [Compound 19] showed an IC50 (Human M3 receptor) of 0.3 to 3 nM.
`CCN(CCNC(=O)c1ccc(CCNC[C@H](O)c2ccc(O)c3[nH]c(=O)ccc23)cc1)C(=O)COc1cccc([C@](O)(C(=O)OCC2CCN(Cc3ccccc3)CC2)c2ccccc2)c1` gave an IC50 (Human M3 receptor) of over 3 nM and an IC50 (Human β2 adrenoceptor) of 0.3 to 3 nM.
`O=C(NCc1ccc(COc2cccc([C@](O)(C(=O)OC3CCN(Cc4ccccc4)CC3)c3ccccc3)c2)cc1)Nc1ccc(CNC[C@H](O)c2ccc(O)c3[nH]c(=O)ccc23)cc1` [Compound 166, 1-Benzylpiperidin-4-yl (S)-2-hydroxy-2-(3-((4-((3-(4-((((R)-2-hydroxy-2-(8-hydroxy-2-oxo-1,2-dihydroquinolin-5-yl)ethyl)amino)methyl)phenyl)ureido)-methyl)benzyl)oxy)phenyl)-2-phenylacetate] gave an IC50 (Human M3 receptor) of 0.3 to 3 nM.
With `CN1CC[C@@H](OC(=O)C(O)(c2ccccc2)c2cccc(C(=O)NCCCCNC[C@H](O)c3ccc(O)c4[nH]c(=O)ccc34)c2)C1` (stereo partly drawn) [Compound 49, (R)-1-methylpyrrolidin-3-yl 2-hydroxy-2-(3-((4-(((R)-2-hydroxy-2-(8-hydroxy-2-oxo-1,2-dihydroquinolin-5-yl)ethyl)amino)butyl)carbamoyl)phenyl)-2-phenylacetate diformate] the IC50 (Human M3 receptor) was 0.3 to 3 nM.
`CN1CCC(OC(=O)[C@](O)(c2ccccc2)c2cccc(OCCCCCNC[C@H](O)c3ccc(O)c4[nH]c(=O)ccc34)c2)CC1` [Compound 21, (S)-1-methylpiperidin-4-yl 2-hydroxy-2-(3-((5-(((R)-2-hydroxy-2-(8-hydroxy-2-oxo-1,2-dihydroquinolin-5-yl)ethyl)amino)pentyl)oxy)phenyl)-2-phenylacetate] was tested, and the IC50 (Human M3 receptor) was 0.3 to 3 nM.
For `O=C(NCCCCNC[C@H](O)c1ccc(O)c2[nH]c(=O)ccc12)c1cccc(C(O)(C(=O)O[C@H]2CN3CCC2CC3)c2ccccc2)c1` (stereo partly shown), the IC50 (Human M3 receptor) was over 3 nM and the IC50 (Human β2 adrenoceptor) was under 0.3 nM.
`CN1CCC(OC(=O)[C@@](O)(c2ccccc2)c2cccc(OCCCCCNC[C@H](O)c3ccc(O)c4[nH]c(=O)ccc34)c2)CC1` [Compound 22, (R)-1-methylpiperidin-4-yl 2-hydroxy-2-(3-((5-(((R)-2-hydroxy-2-(8-hydroxy-2-oxo-1,2-dihydroquinolin-5-yl)ethyl)amino)pentyl)oxy)phenyl)-2-phenylacetate] showed an IC50 (Human M3 receptor) of over 3 nM.
`O=C(NCCCOc1cccc([C@](O)(C(=O)OC[C@@H]2CCN(Cc3ccccc3)C2)c2ccccc2)c1)c1ccc(CNC[C@H](O)c2ccc(O)c3[nH]c(=O)ccc23)cc1` [Compound 159, ((R)-1-benzylpyrrolidin-3-yl)methyl (S)-2-hydroxy-2-(3-(3-(4-((((R)-2-hydroxy-2-(8-hydroxy-2-oxo-1,2-dihydroquinolin-5-yl)ethyl)amino)methyl)benzamido)propoxy)phenyl)-2-phenylacetate] was tested, and the IC50 (Human M3 receptor) was 0.3 to 3 nM.
For `O=C(NCCCOc1cccc([C@](O)(C(=O)OC[C@H]2CCN(Cc3ccccc3)C2)c2ccccc2)c1)c1ccc(CNC[C@H](O)c2ccc(O)c3[nH]c(=O)ccc23)cc1` [Compound 160, ((S)-1-benzylpyrrolidin-3-yl)methyl (S)-2-hydroxy-2-(3-(3-(4-((((R)-2-hydroxy-2-(8-hydroxy-2-oxo-1,2-dihydroquinolin-5-yl)ethyl)amino)methyl)benzamido)propoxy)phenyl)-2-phenylacetate], the IC50 (Human M3 receptor) was 0.3 to 3 nM.
In the case of `CN1CC(OC(=O)[C@](O)(c2ccccc2)c2cccc(OCCCCCNC[C@H](O)c3ccc(O)c4[nH]c(=O)ccc34)c2)C1` [Compound 26, (S)-1-methylazetidin-3-yl 2-hydroxy-2-(3-((5-(((R)-2-hydroxy-2-(8-hydroxy-2-oxo-1,2-dihydroquinolin-5-yl)ethyl)amino)pentyl)oxy)phenyl)-2-phenylacetate], the IC50 (Human M3 receptor) is reported as 0.3 to 3 nM.
For `CN(C)CCOC(=O)[C@](O)(c1ccccc1)c1cccc(OCCCCCNC[C@H](O)c2ccc(O)c3[nH]c(=O)ccc23)c1` [Compound 17, (S)-2-(dimethylamino)ethyl 2-hydroxy-2-(3-((5-(((R)-2-hydroxy-2-(8-hydroxy-2-oxo-1,2-dihydroquinolin-5-yl)ethyl)amino)pentyl)oxy)phenyl)-2-phenylacetate], the IC50 (Human M3 receptor) was over 3 nM.
For `O=C(NCCCOc1cccc([C@](O)(C(=O)OC2CN(Cc3ccccc3)C2)c2ccccc2)c1)c1ccc(CNC[C@H](O)c2ccc(O)c3[nH]c(=O)ccc23)cc1` [Compound 165, 1-benzylazetidin-3-yl (S)-2-hydroxy-2-(3-(3-(4-((((R)-2-hydroxy-2-(8-hydroxy-2-oxo-1,2-dihydroquinolin-5-yl)ethyl)amino)methyl)benzamido)propoxy)phenyl)-2-phenylacetate], the IC50 (Human M3 receptor) was 0.3 to 3 nM.
For `COc1cc(CNC[C@H](O)c2ccc(O)c3[nH]c(=O)ccc23)ccc1NC(=O)NCc1ccc(COc2cccc([C@](O)(C(=O)OC3CCN(Cc4ccccc4)CC3)c3ccccc3)c2)cc1` [Compound 168, 1-benzylpiperidin-4-yl (S)-2-hydroxy-2-(3-((4-((3-(4-((((R)-2-hydroxy-2-(8-hydroxy-2-oxo-1,2-dihydroquinolin-5-yl)ethyl)amino)methyl)-2-methoxyphenyl)ureido)methyl)benzyl)oxy)phenyl)-2-phenylacetate], the IC50 (Human M3 receptor) was 0.3 to 3 nM.
Work on `O=C(NCCCOc1cccc([C@](O)(C(=O)O[C@@H]2CCN(Cc3ccccc3)C2)c2ccccc2)c1)c1ccc(CNC[C@H](O)c2ccc(O)c3[nH]c(=O)ccc23)cc1` [Compound 163, (R)-1-benzylpyrrolidin-3-yl (S)-2-hydroxy-2-(3-(3-(4-((((R)-2-hydroxy-2-(8-hydroxy-2-oxo-1,2-dihydroquinolin-5-yl)ethyl)amino)methyl)benzamido)propoxy)phenyl)-2-phenylacetate] yielded an IC50 (Human M3 receptor) of 0.3 to 3 nM.
For `CN1CCC[C@@H](OC(=O)[C@](O)(c2ccccc2)c2cccc(OCCCCCNC[C@H](O)c3ccc(O)c4[nH]c(=O)ccc34)c2)C1` [Compound 25], the IC50 (Human M3 receptor) was 0.3 to 3 nM.
Molecule `O=C(CCCCNC[C@H](O)c1ccc(O)c2[nH]c(=O)ccc12)Nc1cccc(C(O)(C(=O)O[C@H]2CN3CCC2CC3)c2ccccc2)c1` (stereo partly shown) has an IC50 (Human M3 receptor) of 0.3 to 3 nM and an IC50 (Human β2 adrenoceptor) of over 3 nM.
For `COc1cc(NC(=O)NCc2ccc(COc3cccc([C@](O)(C(=O)OC4CCN(Cc5ccccc5)CC4)c4ccccc4)c3)cc2)ccc1CNC[C@H](O)c1ccc(O)c2[nH]c(=O)ccc12` [Compound 167, 1-benzylpiperidin-4-yl (S)-2-hydroxy-2-(3-((4-((3-(4-((((R)-2-hydroxy-2-(8-hydroxy-2-oxo-1,2-dihydroquinolin-5-yl)ethyl)amino)methyl)-3-methoxyphenyl)ureido)methyl)benzyl)oxy)phenyl)-2-phenylacetate], the IC50 (Human M3 receptor) was 0.3 to 3 nM.
In the case of `O=C(NCCCOc1cccc([C@](O)(C(=O)O[C@H]2CCN(Cc3ccccc3)C2)c2ccccc2)c1)c1ccc(CNC[C@H](O)c2ccc(O)c3[nH]c(=O)ccc23)cc1` [Compound 164, (S)-1-benzylpyrrolidin-3-yl (S)-2-hydroxy-2-(3-(3-(4-((((R)-2-hydroxy-2-(8-hydroxy-2-oxo-1,2-dihydroquinolin-5-yl)ethyl)amino)methyl)benzamido)propoxy)phenyl)-2-phenylacetate], the IC50 (Human M3 receptor) is reported as 0.3 to 3 nM.
`O=C(O[C@H]1CN2CCC1CC2)C(O)(c1cccc(OCCCCCNC[C@H](O)c2ccc(O)c3[nH]c(=O)ccc23)c1)C1CCCC1` (stereo partly shown) gave an IC50 (Human M3 receptor) of 0.3 to 3 nM and an IC50 (Human β2 adrenoceptor) of under 0.3 nM.
